This is an account of results in publication PMC4456413, “Trypanothione Reductase: A Target Protein for a Combined In Vitro and In Silico Screening Approach” (PLoS Neglected Tropical Diseases, 2015).

Protein sequences, listed by entry. Tags and fused reporters are not part of them. Lines headed by an entry give the natural chain unless they say otherwise; changes in a name come on top.
UniProt P28593: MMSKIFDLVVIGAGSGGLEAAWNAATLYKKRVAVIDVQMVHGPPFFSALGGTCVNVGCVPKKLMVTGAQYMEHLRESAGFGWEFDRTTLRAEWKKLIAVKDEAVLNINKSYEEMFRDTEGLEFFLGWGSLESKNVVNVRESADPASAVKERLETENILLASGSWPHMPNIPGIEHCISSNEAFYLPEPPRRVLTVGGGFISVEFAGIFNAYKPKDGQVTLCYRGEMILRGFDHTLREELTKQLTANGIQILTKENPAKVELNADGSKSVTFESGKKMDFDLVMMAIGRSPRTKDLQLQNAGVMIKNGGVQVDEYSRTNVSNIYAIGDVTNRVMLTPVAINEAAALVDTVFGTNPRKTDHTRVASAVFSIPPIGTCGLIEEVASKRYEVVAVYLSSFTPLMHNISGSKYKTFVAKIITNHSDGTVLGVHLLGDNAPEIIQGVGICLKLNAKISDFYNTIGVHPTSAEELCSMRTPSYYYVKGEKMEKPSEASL

The experiment addresses T1, T. cruzi TR (Trypanosoma cruzi, UniProt P28593).
T1 construct: made in house
It is filed as biochemical. Conditions: Ki and IC50 on TR versus chlorhexidine. The procedure:
The compounds used in the enzymatic inhibitory testing and the in silico screening were available as stock solutions in DMSO or in solid from a compound library maintained at MSD. All IC50 determinations were performed starting from solid material. Recombinant T. cruzi TR (CL strain) was prepared using a published expression system. TS2 was prepared enzymatically as described previously. For antiparasitic studies, culture-adapted bloodstream T. brucei parasites of cell line 449 were used. These cells are descendants of strain Lister 427 stably transfected with the gene for the tetracycline repressor.
The kinetic analysis of TR was performed in 384-well plates (Greiner Bio-One GmbH, Frickenhausen, Germany). The reaction mixture (50 μl) contained 5 mU/ml TR, 40 mM Hepes, pH 7.5, 1 mM EDTA, 300 μM NADPH (Sigma-Aldrich), 0.1 mg/ml BSA, and 0.01% Pluronic (BASF). […] The absorption decrease at 340 nm was measured by start and end point determination resulting in a delta of the optical density (delta A) for 30 min. […]
Eleven compound concentrations were used ranging from 100–0.01 μM or 200–0.004 μM. […] IC50 values were calculated using the four-parameter equation model 205 and the option “unlock” from the XLfit add-in (IDBS, Guildford, United Kingdom) in Excel (Microsoft Corporation, Redmond, WA). […]

`O=C(Nc1ccccc1)OCCSc1ccc([N+](=O)[O-])c2nonc12` [Compound 1]: the “on target activity (Ki and IC50) times better compared to chlorhexidine” value is on record as 10–20 times.
